Where a name gives a salt, the structure may show the parent alone.
How the values were obtained:
[1] = target: HEA-2 (L(384)M/M(421)G/G(521)R ER-LBD mutant in the context of HEA-1) (Homo sapiens, UniProt P03372, G521R/L384M/M421G); assay: SEAP reporter co-transfection in HeLa cells, HEA-2; assay type: cell-based; settings: tested form: trifluoroacetate
hERα = hERα (Homo sapiens, UniProt P03372); assay: binding to full-length hERα; settings: read-out: hERα IC50; full-length receptor; tested form: trifluoroacetate
GST-ERα wt-LBD = GST-ERα wt-LBD (Homo sapiens, UniProt P03372); assay: competitive radiometric 3[H]E2 displacement binding assay, wt LBD; settings: read-out: GST-ERα wt-LBD IC50, tested form: trifluoroacetate

Sequences of proteins named here, by UniProt entry; tags and fusion partners are left off. A change or cut given only in a name is not applied to a line headed by its entry. A line that says so, or that is headed by a name, gives the form on record, which may keep a tag or linker. Residues count along the entry.
UniProt P03372, whole entry: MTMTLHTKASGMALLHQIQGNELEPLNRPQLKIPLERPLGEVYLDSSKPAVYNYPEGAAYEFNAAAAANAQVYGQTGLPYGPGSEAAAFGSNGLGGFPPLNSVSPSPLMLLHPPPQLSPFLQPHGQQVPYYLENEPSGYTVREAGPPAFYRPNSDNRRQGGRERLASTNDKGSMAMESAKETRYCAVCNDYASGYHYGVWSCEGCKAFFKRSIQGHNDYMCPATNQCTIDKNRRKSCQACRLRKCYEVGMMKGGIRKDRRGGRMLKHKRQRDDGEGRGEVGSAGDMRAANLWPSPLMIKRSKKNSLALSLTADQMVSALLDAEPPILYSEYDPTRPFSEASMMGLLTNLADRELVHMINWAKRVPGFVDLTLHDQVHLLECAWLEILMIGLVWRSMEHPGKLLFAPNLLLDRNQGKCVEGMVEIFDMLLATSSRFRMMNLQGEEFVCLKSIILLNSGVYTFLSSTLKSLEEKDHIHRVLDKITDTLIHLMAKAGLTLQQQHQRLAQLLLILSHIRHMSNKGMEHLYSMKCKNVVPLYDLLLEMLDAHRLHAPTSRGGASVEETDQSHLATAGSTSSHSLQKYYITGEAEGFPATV
UniProt P03372, 303-595 limits assumed: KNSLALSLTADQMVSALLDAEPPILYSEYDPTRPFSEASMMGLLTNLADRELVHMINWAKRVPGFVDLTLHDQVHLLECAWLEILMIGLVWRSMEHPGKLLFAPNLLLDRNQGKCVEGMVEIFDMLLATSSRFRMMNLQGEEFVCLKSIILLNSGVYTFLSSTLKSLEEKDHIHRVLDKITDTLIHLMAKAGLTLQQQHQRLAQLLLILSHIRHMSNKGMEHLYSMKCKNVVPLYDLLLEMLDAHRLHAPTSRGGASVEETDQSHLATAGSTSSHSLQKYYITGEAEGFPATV
UniProt P03372, 303-595 with tags or gaps G521R/L384M/M421G: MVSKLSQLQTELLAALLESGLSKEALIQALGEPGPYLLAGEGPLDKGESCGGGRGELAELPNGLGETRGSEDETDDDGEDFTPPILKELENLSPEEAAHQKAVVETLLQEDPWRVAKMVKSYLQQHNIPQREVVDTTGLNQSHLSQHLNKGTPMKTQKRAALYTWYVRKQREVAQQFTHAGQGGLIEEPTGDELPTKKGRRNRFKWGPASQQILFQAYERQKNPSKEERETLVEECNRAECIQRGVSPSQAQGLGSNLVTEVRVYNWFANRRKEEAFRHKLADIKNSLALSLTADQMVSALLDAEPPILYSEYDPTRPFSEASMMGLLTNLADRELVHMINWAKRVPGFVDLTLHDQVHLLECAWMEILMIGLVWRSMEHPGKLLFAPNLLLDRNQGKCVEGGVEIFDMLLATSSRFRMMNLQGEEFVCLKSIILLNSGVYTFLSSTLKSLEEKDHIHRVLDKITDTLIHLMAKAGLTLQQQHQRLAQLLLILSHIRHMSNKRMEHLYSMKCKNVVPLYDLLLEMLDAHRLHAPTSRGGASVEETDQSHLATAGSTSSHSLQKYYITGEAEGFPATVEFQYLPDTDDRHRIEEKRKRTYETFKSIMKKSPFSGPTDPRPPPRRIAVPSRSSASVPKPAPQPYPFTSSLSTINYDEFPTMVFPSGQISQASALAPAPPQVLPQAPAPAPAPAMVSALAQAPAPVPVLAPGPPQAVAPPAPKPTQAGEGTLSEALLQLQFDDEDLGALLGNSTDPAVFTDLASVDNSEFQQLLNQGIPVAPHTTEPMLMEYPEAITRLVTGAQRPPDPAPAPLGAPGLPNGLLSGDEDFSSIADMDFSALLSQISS

O=C1CCC2(Cc3ccccc3)Cc3c(ccc4[nH]ncc34)C2=C1c1ccc(OCCN2CCCCC2)cc1 (stereo not drawn) [CMP9, 9a-benzyl-6-{4-[2-(1-pipe-ridinyl)eth-oxy]phenyl}-8,9,9a,10-tetra-hydroindeno[2,1-e]in-dazol-7(3H)-one hydrotrifluoroacetae salt]
EC50 [1]: 300 nM
IC50 (hERα): 622 nM
IC50 (GST-ERα wt-LBD): 1130 nM

Reference: patent US20070087346A1, “Orthogonal gene switches” (priority 2003, published 2007)
